Results reported in PubChem BioAssay AID2718 (Broad Institute, 2010).
Only a part is listed here, and it is no random draw. Calls of active or inactive are those of the source. Cut-off read from the data, not from the text of the source: active = inhibition above about 26% (passing the limit was not always enough); inconclusive = no clear call, values can overlap the other calls.

Sequences of proteins named here, by UniProt entry; tags and fusion partners are left off. A change or cut given only in a name is not applied to a line headed by its entry.
UniProt O15379: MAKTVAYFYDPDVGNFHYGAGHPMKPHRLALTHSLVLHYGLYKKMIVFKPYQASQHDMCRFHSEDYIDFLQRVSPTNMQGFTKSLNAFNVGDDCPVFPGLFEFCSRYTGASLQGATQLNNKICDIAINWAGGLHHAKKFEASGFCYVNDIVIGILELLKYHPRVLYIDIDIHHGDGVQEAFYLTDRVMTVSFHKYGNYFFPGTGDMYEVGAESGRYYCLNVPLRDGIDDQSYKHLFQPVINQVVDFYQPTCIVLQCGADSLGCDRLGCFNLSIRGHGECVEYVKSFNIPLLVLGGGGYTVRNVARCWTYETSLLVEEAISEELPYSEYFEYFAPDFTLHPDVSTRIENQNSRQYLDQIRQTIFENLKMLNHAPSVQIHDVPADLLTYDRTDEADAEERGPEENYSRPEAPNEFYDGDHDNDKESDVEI

The compounds below were run against Histone deacetylase 3 (Homo sapiens) (UniProt O15379) (assay: HDAC3 deacetylase inhibitors, primary screen, biochemical, fluorescence, cell-free homogeneous (AID 2718)). Settings: recombinant HDAC3, fluorogenic peptide/trypsin coupled, at 8.3 µM, hits give high values.
For `CS(=O)(=O)c1cc([N+](=O)[O-])c2no[n+]([O-])c2c1`, the inhibition was active: 34.3%.
With `CCOP1(=S)c2c(C)nn(CCC#N)c2N=C(c2ccccc2F)N1C` (configuration not stated) the inhibition was inactive: -5.54%.
`O=P(Nc1nccs1)(c1ccccc1)c1nc2ccccc2s1` (configuration not stated) was tested, and the inhibition was inactive: 15.3%.
With `O=P(Nc1nccs1)(Oc1ccccc1)Oc1ccccc1` the inhibition was inactive: -3.18%.
With `Nc1ccccc1[As](=O)(O)c1ccccc1` the inhibition was inactive: -1.86%.
In the case of `O=C(O)COc1ccc([As](=O)(O)O)cc1[N+](=O)[O-]`, the inhibition was inactive: -0.46%.
`CCCOP(=S)(Nc1nc(N)cc(=O)[nH]1)OCCC` was tested, and the inhibition was inactive: 3.14%.
For `Nc1cccc2c([As](=O)(O)O)cccc12`, the inhibition was inactive: -2.99%.
`COc1cc(C2NCCC3(OCCO3)C2(C)C)cc(OC)c1OC` (configuration not stated) was tested, and the inhibition was inactive: -0.0282%.
For `CCOP(=O)(Nc1cccc2ccccc12)OCC`, the inhibition was inactive: -8.16%.
For `O=[As](O)(O)c1cccnc1`, the inhibition was inactive: -5.6%.
In the case of `CS(=O)(=O)c1ccc(Cl)c(NC(=O)COC(=O)C(O)(c2ccccc2)c2ccccc2)c1`, the inhibition was inactive: 1.03%.
In the case of `O=C(OC1CN2CCC1CC2)c1ccc(Cl)cc1` (configuration not stated), the inhibition was inactive: 0.573%.
For `O=[As](O)(c1cccc(O)c1)c1cccc(O)c1`, the inhibition was inactive: 1.7%.
In the case of `Cc1cccc(OCC(=O)OC2CN3CCC2CC3)c1` (configuration not stated), the inhibition was inactive: -4.55%.
With `COc1ccc(N/C(=N/P(=O)(N2CCOCC2)N2CCOCC2)N2CCOCC2)cc1` the inhibition was inactive: -8.44%.
`O=C(OC1CN2CCC1CC2)C12CC3CC(CC(C3)C1)C2` (configuration not stated) was tested, and the inhibition was inactive: 0.368%.
With `Cc1cc(=O)[nH]c(N[N+](=O)[O-])n1` the inhibition was inactive: 3.7%.
In the case of `Cc1c2c(nc3ccccc13)SC(C(Cl)Cl)C2` (configuration not stated), the inhibition was inactive: 0.0757%.
For `COc1ccc2nc(NP(=O)(c3ccccc3)c3ccccc3)sc2c1`, the inhibition was inactive: -0.664%.
`COc1cc(I)ccc1[As](=O)(O)O` was tested, and the inhibition was inactive: 8.12%.
In the case of `CC(C)c1ccc(OP(=O)(Nc2ccccn2)Oc2ccccc2F)cc1` (configuration not stated), the inhibition was inactive: -0.929%.
With `ClCCSc1nnc(-c2cccnc2)o1` the inhibition was inactive: 0.834%.
In the case of `CCN(CC)C(=S)SC(NC=O)C(Cl)(Cl)Cl` (configuration not stated), the inhibition was inactive: 1.8%.
For `CC(C)NC(=O)NP(=O)(Oc1ccccc1)Oc1ccccc1`, the inhibition was inactive: 4.39%.
For `O=[N+]([O-])c1cc([N+](=O)[O-])c(-c2ccn[nH]2)s1`, the inhibition was inactive: -0.295%.
With `C[As](=O)(O)c1cccc(C(=O)O)c1` the inhibition was inactive: 4.96%.
`O=[As](O)(c1ccc(O)cc1)c1ccccc1O` was tested, and the inhibition was inactive: 0.0444%.
For `COc1cc(C(=O)NCC2(N3CCOCC3)CCCCC2)ccc1OCC(C)C`, the inhibition was inactive: -5.76%.
`Cc1ccc2nc3c(c(C)c2c1)CC(C(Cl)Cl)S3` (configuration not stated) was tested, and the inhibition was inactive: -8.39%.
In the case of `Cc1ccc(OP(=O)(Nc2ccc([N+](=O)[O-])cn2)Oc2ccc(C)cc2)cc1`, the inhibition was inactive: 6.4%.
With `CCOC(=O)Nc1cccc([As](=O)(O)O)c1` the inhibition was inactive: 4.35%.
`O=[N+]([O-])c1ccc(Nc2ccc(Oc3ccc([N+](=O)[O-])cc3[N+](=O)[O-])cc2)c([N+](=O)[O-])c1` was tested, and the inhibition was inactive: 1.48%.
In the case of `O=P(Nc1ccccn1)(c1cccc2ccccc12)c1cccc2ccccc12`, the inhibition was inactive: 6.44%.
With `Cc1cc(SC(NC=O)C(Cl)(Cl)Cl)ncn1` (configuration not stated) the inhibition was inactive: 7.46%.
In the case of `Cc1cc(SC(NC(=O)c2ccccc2)C(Cl)(Cl)Cl)nc(C(C)C)n1` (configuration not stated), the inhibition was inactive: 6.05%.
In the case of `CCOC(=O)c1ccc(NC(=O)C(C)(CCl)SC)cc1` (configuration not stated), the inhibition was inactive: 6.19%.
For `O=C(OC1CN2CCC1CC2)c1cccc([N+](=O)[O-])c1` (configuration not stated), the inhibition was inactive: 3.72%.
In the case of `CCC(C)N(CC(C)C)C(=S)SC(NC(C)=O)C(Cl)(Cl)Cl` (configuration not stated), the inhibition was inactive: 12%.
For `COP1(=S)c2c(C)nn(CCC#N)c2N=C(c2ccc(F)cc2)N1C` (configuration not stated), the inhibition was inactive: 0.954%.
`O=C(COc1ccccc1)OC1CN2CCC1CC2` (configuration not stated) was tested, and the inhibition was inactive: 2.58%.
With `O=C(Nc1ccncc1[N+](=O)[O-])c1ccc([N+](=O)[O-])cc1[N+](=O)[O-]` the inhibition was inactive: -2.14%.
